# Experimental data published in the Human Domainome abundance scans (Beltran et al. 2025).
# ± gives the uncertainty stated by the source.
# B1: Tyrosine-protein kinase ABL1, residues 64 to 120; numbered along this chain, P00519 (parent)
# chain: NLFVALYDFVASGDNTLSITKGEKLRVLGYNHNGEWCEAQTKNGQGWVPSNYITPVN
# Variants of: B1
# Test: abundance fitness (aPCA) (normalised: wild type 0, dead -1); higher = more abundant; growth selection in yeast, the domain comes from the species named
# Conditions: Homo sapiens
row,Variant,abundance fitness
1,NLFVALYDFVARGDNTLSITKGEKLRVLGYNHNGEWCEAQTKNGQGWVPSNYITPVN [S12R],-0.027 ± 0.064
2,NLFVALYDFVATGDNTLSITKGEKLRVLGYNHNGEWCEAQTKNGQGWVPSNYITPVN [S12T],-0.352 ± 0.2
3,NLFVALYDFVAVGDNTLSITKGEKLRVLGYNHNGEWCEAQTKNGQGWVPSNYITPVN [S12V],-0.194 ± 0.084
4,NLFVALYDFVAWGDNTLSITKGEKLRVLGYNHNGEWCEAQTKNGQGWVPSNYITPVN [S12W],-0.336 ± 0.11
5,NLFVALYDFVAYGDNTLSITKGEKLRVLGYNHNGEWCEAQTKNGQGWVPSNYITPVN [S12Y],-0.55 ± 0.36
6,NLFVALYDFVASADNTLSITKGEKLRVLGYNHNGEWCEAQTKNGQGWVPSNYITPVN [G13A],0.002 ± 0.062
7,NLFVALYDFVASCDNTLSITKGEKLRVLGYNHNGEWCEAQTKNGQGWVPSNYITPVN [G13C],-0.113 ± 0.13
8,NLFVALYDFVASDDNTLSITKGEKLRVLGYNHNGEWCEAQTKNGQGWVPSNYITPVN [G13D],0.141 ± 0.13
9,NLFVALYDFVASEDNTLSITKGEKLRVLGYNHNGEWCEAQTKNGQGWVPSNYITPVN [G13E],0.001 ± 0.084
10,NLFVALYDFVASFDNTLSITKGEKLRVLGYNHNGEWCEAQTKNGQGWVPSNYITPVN [G13F],-0.136 ± 0.24
11,NLFVALYDFVASIDNTLSITKGEKLRVLGYNHNGEWCEAQTKNGQGWVPSNYITPVN [G13I],0.176 ± 0.11
12,NLFVALYDFVASKDNTLSITKGEKLRVLGYNHNGEWCEAQTKNGQGWVPSNYITPVN [G13K],0.169 ± 0.13
13,NLFVALYDFVASLDNTLSITKGEKLRVLGYNHNGEWCEAQTKNGQGWVPSNYITPVN [G13L],-0.123 ± 0.083
14,NLFVALYDFVASMDNTLSITKGEKLRVLGYNHNGEWCEAQTKNGQGWVPSNYITPVN [G13M],-0.145 ± 0.1
15,NLFVALYDFVASNDNTLSITKGEKLRVLGYNHNGEWCEAQTKNGQGWVPSNYITPVN [G13N],0.11 ± 0.21
16,NLFVALYDFVASPDNTLSITKGEKLRVLGYNHNGEWCEAQTKNGQGWVPSNYITPVN [G13P],-0.366 ± 0.13
17,NLFVALYDFVASQDNTLSITKGEKLRVLGYNHNGEWCEAQTKNGQGWVPSNYITPVN [G13Q],-0.017 ± 0.13
18,NLFVALYDFVASRDNTLSITKGEKLRVLGYNHNGEWCEAQTKNGQGWVPSNYITPVN [G13R],-0.042 ± 0.069
19,NLFVALYDFVASVDNTLSITKGEKLRVLGYNHNGEWCEAQTKNGQGWVPSNYITPVN [G13V],-0.115 ± 0.095
20,NLFVALYDFVASWDNTLSITKGEKLRVLGYNHNGEWCEAQTKNGQGWVPSNYITPVN [G13W],-0.35 ± 0.085
21,NLFVALYDFVASYDNTLSITKGEKLRVLGYNHNGEWCEAQTKNGQGWVPSNYITPVN [G13Y],-0.201 ± 0.11
22,NLFVALYDFVASGCNTLSITKGEKLRVLGYNHNGEWCEAQTKNGQGWVPSNYITPVN [D14C],0.054 ± 0.13
23,NLFVALYDFVASGENTLSITKGEKLRVLGYNHNGEWCEAQTKNGQGWVPSNYITPVN [D14E],-0.197 ± 0.085

row,Variant,abundance fitness
1,NLFVALYDFVASGFNTLSITKGEKLRVLGYNHNGEWCEAQTKNGQGWVPSNYITPVN [D14F],-0.312 ± 0.084
2,NLFVALYDFVASGGNTLSITKGEKLRVLGYNHNGEWCEAQTKNGQGWVPSNYITPVN [D14G],-0.139 ± 0.071
3,NLFVALYDFVASGHNTLSITKGEKLRVLGYNHNGEWCEAQTKNGQGWVPSNYITPVN [D14H],-0.237 ± 0.15
4,NLFVALYDFVASGKNTLSITKGEKLRVLGYNHNGEWCEAQTKNGQGWVPSNYITPVN [D14K],-0.195 ± 0.12
5,NLFVALYDFVASGLNTLSITKGEKLRVLGYNHNGEWCEAQTKNGQGWVPSNYITPVN [D14L],-0.362 ± 0.092
6,NLFVALYDFVASGMNTLSITKGEKLRVLGYNHNGEWCEAQTKNGQGWVPSNYITPVN [D14M],-0.202 ± 0.07
7,NLFVALYDFVASGNNTLSITKGEKLRVLGYNHNGEWCEAQTKNGQGWVPSNYITPVN [D14N],0.013 ± 0.12
8,NLFVALYDFVASGPNTLSITKGEKLRVLGYNHNGEWCEAQTKNGQGWVPSNYITPVN [D14P],-0.13 ± 0.056
9,NLFVALYDFVASGQNTLSITKGEKLRVLGYNHNGEWCEAQTKNGQGWVPSNYITPVN [D14Q],-0.049 ± 0.053
10,NLFVALYDFVASGRNTLSITKGEKLRVLGYNHNGEWCEAQTKNGQGWVPSNYITPVN [D14R],0.067 ± 0.062
11,NLFVALYDFVASGSNTLSITKGEKLRVLGYNHNGEWCEAQTKNGQGWVPSNYITPVN [D14S],-0.059 ± 0.081
12,NLFVALYDFVASGTNTLSITKGEKLRVLGYNHNGEWCEAQTKNGQGWVPSNYITPVN [D14T],0.008 ± 0.1
13,NLFVALYDFVASGVNTLSITKGEKLRVLGYNHNGEWCEAQTKNGQGWVPSNYITPVN [D14V],-0.058 ± 0.068
14,NLFVALYDFVASGWNTLSITKGEKLRVLGYNHNGEWCEAQTKNGQGWVPSNYITPVN [D14W],-0.28 ± 0.12
15,NLFVALYDFVASGYNTLSITKGEKLRVLGYNHNGEWCEAQTKNGQGWVPSNYITPVN [D14Y],-0.639 ± 0.23
16,NLFVALYDFVASGDATLSITKGEKLRVLGYNHNGEWCEAQTKNGQGWVPSNYITPVN [N15A],0.097 ± 0.095
17,NLFVALYDFVASGDCTLSITKGEKLRVLGYNHNGEWCEAQTKNGQGWVPSNYITPVN [N15C],0.045 ± 0.11
18,NLFVALYDFVASGDDTLSITKGEKLRVLGYNHNGEWCEAQTKNGQGWVPSNYITPVN [N15D],-0.013 ± 0.11
19,NLFVALYDFVASGDETLSITKGEKLRVLGYNHNGEWCEAQTKNGQGWVPSNYITPVN [N15E],-0.008 ± 0.098
20,NLFVALYDFVASGDFTLSITKGEKLRVLGYNHNGEWCEAQTKNGQGWVPSNYITPVN [N15F],-0.216 ± 0.11
21,NLFVALYDFVASGDGTLSITKGEKLRVLGYNHNGEWCEAQTKNGQGWVPSNYITPVN [N15G],0.078 ± 0.067
22,NLFVALYDFVASGDHTLSITKGEKLRVLGYNHNGEWCEAQTKNGQGWVPSNYITPVN [N15H],-0.087 ± 0.15
23,NLFVALYDFVASGDITLSITKGEKLRVLGYNHNGEWCEAQTKNGQGWVPSNYITPVN [N15I],0.287 ± 0.15
